Assay results reported in patent US12291502B2, “Topoisomerase II-alpha inhibitors and methods of treating cancer using the same” (The Regents of the University of Colorado, priority 2019, dated 2025).

Amino acid sequences for entries named in this document (tags omitted).
UniProt P11388, whole entry: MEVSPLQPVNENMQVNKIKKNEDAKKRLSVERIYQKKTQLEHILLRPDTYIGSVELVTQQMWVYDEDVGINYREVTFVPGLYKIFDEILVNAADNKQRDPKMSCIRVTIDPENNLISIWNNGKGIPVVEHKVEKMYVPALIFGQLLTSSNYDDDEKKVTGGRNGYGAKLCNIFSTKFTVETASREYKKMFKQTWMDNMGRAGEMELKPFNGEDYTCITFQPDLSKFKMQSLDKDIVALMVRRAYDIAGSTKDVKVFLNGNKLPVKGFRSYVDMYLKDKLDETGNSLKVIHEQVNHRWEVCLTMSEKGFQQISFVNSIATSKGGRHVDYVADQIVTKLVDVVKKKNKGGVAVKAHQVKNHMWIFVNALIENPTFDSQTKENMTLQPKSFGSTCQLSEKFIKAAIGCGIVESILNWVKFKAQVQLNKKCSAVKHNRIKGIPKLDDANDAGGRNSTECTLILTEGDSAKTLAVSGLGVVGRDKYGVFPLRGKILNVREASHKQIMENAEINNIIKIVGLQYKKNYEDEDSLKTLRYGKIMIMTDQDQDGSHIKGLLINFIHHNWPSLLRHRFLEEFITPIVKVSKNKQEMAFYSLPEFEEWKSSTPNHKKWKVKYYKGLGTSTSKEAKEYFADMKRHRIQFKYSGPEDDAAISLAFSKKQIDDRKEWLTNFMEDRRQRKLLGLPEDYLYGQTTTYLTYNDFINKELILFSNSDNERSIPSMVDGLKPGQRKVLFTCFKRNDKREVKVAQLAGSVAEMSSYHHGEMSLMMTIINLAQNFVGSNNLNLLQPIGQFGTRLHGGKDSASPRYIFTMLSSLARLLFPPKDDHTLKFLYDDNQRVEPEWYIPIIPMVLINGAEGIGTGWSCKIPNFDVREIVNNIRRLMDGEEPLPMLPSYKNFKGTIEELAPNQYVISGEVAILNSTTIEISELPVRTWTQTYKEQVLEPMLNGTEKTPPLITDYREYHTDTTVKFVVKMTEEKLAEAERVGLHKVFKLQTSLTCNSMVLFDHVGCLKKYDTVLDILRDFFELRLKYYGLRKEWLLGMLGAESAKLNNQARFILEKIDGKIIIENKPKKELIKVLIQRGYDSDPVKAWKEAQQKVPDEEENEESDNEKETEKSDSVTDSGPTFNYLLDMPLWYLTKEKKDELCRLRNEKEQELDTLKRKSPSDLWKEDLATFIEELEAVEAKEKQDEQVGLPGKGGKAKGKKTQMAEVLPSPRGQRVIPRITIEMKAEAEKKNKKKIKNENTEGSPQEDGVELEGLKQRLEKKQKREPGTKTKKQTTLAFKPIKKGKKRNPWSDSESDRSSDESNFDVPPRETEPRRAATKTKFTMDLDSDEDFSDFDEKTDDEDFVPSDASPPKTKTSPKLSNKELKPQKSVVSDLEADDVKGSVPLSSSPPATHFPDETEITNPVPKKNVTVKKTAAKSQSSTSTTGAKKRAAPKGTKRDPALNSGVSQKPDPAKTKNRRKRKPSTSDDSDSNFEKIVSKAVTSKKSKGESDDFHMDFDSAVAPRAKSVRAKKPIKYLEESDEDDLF

Columns and labels:
[1] = test system: TOP2A-dependent TCF-transcription in SW620-TOP tumor organoids; assay: TCF (TOPflash) reporter assay in 3D tumor organoids; type: cell-based; conditions: read-out: % TCP inhibition IC50, Table 2, 72 hours
Experimental: TCF reporter assay in 3D Tumor organoid. Stable engineered cells containing pCDH-TOPflash-luc-EF1-puro were used to generate tumor organoid arrayed in 96-well plates and treated for 72 hours. One-Glo™ luciferase reagent and CellTiter-Glo™ 3D cell viability reagent (Promega) were used to determine the TCF reporter activity in viable cells.
After characterizing 3 and 7 as TOP2A ATP-competitive inhibitors, these compounds were next tested for their ability to inhibit TOP2A-dependent TCF-transcription using the well characterized TOPflash (TOP) luminescent reporter, which was used to generate a stably transduced SW620-TOP reporter cells as described previously (Zhou, et al., Oncogene 2016, 35:4990-9). These cells were used to generate single 3D tumor organoids (700 μm in diameter) uniformly arrayed in 96-well plates, which mimic aspects of tumor function observed in vivo. […] Like neo, the mode of action of compounds 3 and 7 also results in significant antitumor activity (FIGS. 3E-3H). […]
3D Tumor organoid TOPflash reporter assay. […] Briefly, reagents were added to the spheroids at 1:1 ratio (v:v) and the plates were placed on an orbital shaker (300 rpm) for 10 min at room temperature before the luminescence was read with Envision plate reader (PerkinElmer, MA). […]

SW620 tumor organoids [2] = assay: Tumor organoid cytotoxicity / 3D cell viability (CellTox Green); conditions: read-out: % Viability IC50, Table 2, 72 hours
SW620 tumor organoids [3] = assay: 3D invasion assay; conditions: SW620 tumor organoids treated 72 hours, viable cells incubated further 72 hours
[4] = test system: E-cadherin promoter activity (EcadPro-RFP) in SW620 cells; assay: EcadPro-RFP (mCherry) EMT reporter assay; conditions: SW620 tumor organoids
[5] = test system: vimentin promoter activity (VimPro-GFP) in SW620 cells; assay: VimPro-GFP EMT reporter assay; conditions: SW620 tumor organoids
Human TOP2A = Human TOP2A (Homo sapiens, UniProt P11388); assay: TOP2A DNA decatenation assay (kDNA, agarose gel)

COc1cc(NC(C)=O)c(O)c2nccc(-c3ccccc3NC(=O)c3ccccc3)c12
IC50 [1]: 2.4 µM
IC50 (SW620 tumor organoids [2]): > 30 µM
invasive potential, in words (SW620 tumor organoids [3]): inhibit the invasive potential
E-cadherin upregulation (EcadPro-RFP), in words [4]: upregulation of E-cadherin
EC50 ([4]; read-out: % E-cadherin upregulation EC50, Table 2, 72 hours): 6.7 µM
vimentin downregulation (VimPro-GFP), in words [5]: dose-dependent downregulation of vimentin
EC50 ([5]; read-out: % Vimentin downregulation EC50, Table 2, 72 hours): 6.7 µM
% Inhibition TOP2A (30 μM) (Human TOP2A; Table 1, decatenation, 30 μM fixed concentration): 100.0%
IC50 (Human TOP2A; read-out: IC50 TOP2A inhibition, decatenation dose response): 1 µM
